Here are results for 1 compound from patent US7235557B2, “Compounds and their uses” (MGI GP, Inc., priority 2000, dated 2007).

The chains behind the UniProt entries cited, without tags or fusion partners.
UniProt P09874, whole entry: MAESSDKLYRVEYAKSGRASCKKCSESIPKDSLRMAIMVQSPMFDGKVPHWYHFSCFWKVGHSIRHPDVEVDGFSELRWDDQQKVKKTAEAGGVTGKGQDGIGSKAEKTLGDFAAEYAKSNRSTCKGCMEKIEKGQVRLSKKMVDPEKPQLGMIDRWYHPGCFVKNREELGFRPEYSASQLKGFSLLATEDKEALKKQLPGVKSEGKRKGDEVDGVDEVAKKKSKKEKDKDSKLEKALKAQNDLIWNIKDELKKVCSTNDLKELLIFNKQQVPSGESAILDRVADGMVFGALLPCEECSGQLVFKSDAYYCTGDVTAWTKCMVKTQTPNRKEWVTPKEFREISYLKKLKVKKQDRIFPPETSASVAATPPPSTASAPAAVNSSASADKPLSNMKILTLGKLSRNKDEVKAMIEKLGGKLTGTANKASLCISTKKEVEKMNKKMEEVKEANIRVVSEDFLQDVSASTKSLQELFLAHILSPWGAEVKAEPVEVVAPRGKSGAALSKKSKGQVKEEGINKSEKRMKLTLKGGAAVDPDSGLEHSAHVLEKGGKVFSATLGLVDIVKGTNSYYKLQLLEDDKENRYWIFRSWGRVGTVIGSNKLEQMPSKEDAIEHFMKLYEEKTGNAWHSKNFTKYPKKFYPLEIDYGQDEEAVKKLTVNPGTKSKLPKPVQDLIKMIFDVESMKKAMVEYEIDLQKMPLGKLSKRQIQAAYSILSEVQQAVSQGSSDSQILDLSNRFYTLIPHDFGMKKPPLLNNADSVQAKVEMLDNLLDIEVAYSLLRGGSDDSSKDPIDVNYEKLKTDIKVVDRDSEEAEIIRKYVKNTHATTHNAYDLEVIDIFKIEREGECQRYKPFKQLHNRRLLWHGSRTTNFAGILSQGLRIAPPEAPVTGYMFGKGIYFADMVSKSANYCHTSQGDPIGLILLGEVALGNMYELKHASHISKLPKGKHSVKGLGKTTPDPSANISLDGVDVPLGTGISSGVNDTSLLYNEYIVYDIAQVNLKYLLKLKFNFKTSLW

This test addresses T1, purified recombinant human PARP (Homo sapiens, UniProt P09874).
T1 construct: purchased Trevigan (Gaithersburg, Md.)
The test can be described thus: PARP enzyme assay (IC50). Format: biochemical. The conditions noted are these: approximate IC50 values, [3H]NAD.

The structures appear in SMILES notation.

One may read the IC50 as the concentration that gives 50% inhibition. On to `O=C(CN1CCCCC1)Nc1ccc2[nH]c(=O)c3ccccc3c2n1`, for which the half-inhibitory concentration (IC50) was found to be 150 nM.
